# From BindingDB's records for doi:10.1038/nchembio.1930 (Albert Einstein College of Medicine, 2015)
# The chains behind the UniProt entries cited, without tags or fusion partners. Residues count along the entry.
# UniProt O75874, whole entry: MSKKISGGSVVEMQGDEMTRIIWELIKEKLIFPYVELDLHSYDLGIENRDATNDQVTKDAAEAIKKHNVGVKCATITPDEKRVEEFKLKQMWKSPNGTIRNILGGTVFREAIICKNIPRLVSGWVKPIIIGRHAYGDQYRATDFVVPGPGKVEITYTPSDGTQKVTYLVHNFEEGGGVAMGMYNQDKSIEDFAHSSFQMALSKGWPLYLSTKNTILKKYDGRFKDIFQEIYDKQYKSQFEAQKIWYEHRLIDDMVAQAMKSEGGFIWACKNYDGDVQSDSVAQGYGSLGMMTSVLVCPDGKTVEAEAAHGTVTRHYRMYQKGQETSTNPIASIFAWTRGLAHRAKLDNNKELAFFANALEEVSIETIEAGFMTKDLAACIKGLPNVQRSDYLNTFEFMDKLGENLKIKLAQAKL
# UniProt O75874, 2-414 R132C limits assumed: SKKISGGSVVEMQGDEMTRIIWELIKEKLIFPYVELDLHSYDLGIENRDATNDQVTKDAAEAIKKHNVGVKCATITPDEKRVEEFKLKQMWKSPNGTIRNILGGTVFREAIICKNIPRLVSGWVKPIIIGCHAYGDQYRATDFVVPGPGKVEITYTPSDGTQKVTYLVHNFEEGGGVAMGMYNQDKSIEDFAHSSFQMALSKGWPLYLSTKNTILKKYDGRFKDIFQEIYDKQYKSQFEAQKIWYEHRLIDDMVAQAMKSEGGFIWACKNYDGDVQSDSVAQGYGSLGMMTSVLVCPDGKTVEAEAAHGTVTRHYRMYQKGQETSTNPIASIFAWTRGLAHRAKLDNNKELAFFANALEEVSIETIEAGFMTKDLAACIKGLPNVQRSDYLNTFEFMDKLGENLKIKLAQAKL
# UniProt O75874, 2-414 R132G limits assumed: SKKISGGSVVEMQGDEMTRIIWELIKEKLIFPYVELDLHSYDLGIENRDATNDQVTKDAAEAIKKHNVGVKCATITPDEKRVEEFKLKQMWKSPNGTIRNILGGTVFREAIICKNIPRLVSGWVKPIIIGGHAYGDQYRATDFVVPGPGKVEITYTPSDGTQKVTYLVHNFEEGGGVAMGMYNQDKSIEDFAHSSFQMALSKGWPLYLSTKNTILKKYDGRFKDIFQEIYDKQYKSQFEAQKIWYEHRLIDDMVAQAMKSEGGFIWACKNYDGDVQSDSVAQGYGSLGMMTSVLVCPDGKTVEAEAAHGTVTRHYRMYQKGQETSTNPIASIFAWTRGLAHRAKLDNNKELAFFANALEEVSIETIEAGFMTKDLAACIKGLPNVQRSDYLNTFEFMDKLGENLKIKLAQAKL
# UniProt O75874, 2-414 R132H limits assumed: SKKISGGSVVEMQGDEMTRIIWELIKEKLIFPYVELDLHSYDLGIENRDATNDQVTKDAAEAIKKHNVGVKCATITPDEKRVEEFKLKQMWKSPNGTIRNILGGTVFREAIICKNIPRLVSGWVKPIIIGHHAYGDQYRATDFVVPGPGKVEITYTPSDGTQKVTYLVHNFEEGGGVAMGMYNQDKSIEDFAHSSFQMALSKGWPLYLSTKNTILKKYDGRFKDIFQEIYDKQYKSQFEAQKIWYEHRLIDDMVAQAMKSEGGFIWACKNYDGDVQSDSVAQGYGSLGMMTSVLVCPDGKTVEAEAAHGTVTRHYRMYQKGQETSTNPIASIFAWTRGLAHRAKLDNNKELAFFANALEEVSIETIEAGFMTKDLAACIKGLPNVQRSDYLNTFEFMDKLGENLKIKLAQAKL
# pIC50: −log10 of the molar value.
# Experiments:
# Settings in all cases: 25 °C
# [1] = molecular target: Isocitrate dehydrogenase [NADP] cytoplasmic (Homo sapiens, UniProt O75874); assay: Diaphorase/Resazurin Coupled Assay
# Description: For WT IDH1 and IDH2, reactions were conducted at room temperature in 384-well Greiner black microtiter plates in a total volume of 10 μL of assay buffer. Final compound concentrations were typically varied from 5 to 100,000 nM; the isocitrate concentration was fixed at 10 μM, the NADP+ concentration was fixed at 5 μM, and WT IDH1 and IDH2 were fixed at 0.1 nM. Reactions were conducted in duplicate and run kinetically. After each addition, plates were centrifuged for 60 s to ensure complete mixing of reagents.
# [2] = molecular target: Isocitrate dehydrogenase [NADP] cytoplasmic [R132C] (Homo sapiens, UniProt O75874, R132C); assay: RapidFire-MS/MS and NADPH Assays
# Description: (§1) RapidFire-MS/MS measurements of mutant IDH1 and IDH2 reactions were conducted at room temperature in 384-well Greiner polypropylene microtiter plates in a total volume of 20 μL of assay buffer. Final compound concentrations were typically varied from 0.5 to 100,000 nM, though in the case of tight-binding inhibition a range of 0.4 nM to 2 μM was used with a 1.5-fold dilution scheme. The αKG concentration was fixed at 500 μM, the NADPH concentration was fixed at 50 μM, and mutant IDH1 and IDH2 were fixed at 15 nM. Reactions were conducted in duplicate and quenched with final concentrations of 100 mM EDTA. After each addition plates were centrifuged for 60 s to ensure complete mixing of reagents. Endpoint data was obtained after 2 h for R132C IDH1, R132G IDH1, R140Q IDH2 and R172S IDH2 and after 4 h for R132H IDH1. For the RapidFire-MS/MS analysis, a 0.5 μL aliquot of each well was diluted 200-fold into a separate analysis plate containing 100 μL of a f
# [3] = molecular target: Isocitrate dehydrogenase [NADP] cytoplasmic [R132G] (Homo sapiens, UniProt O75874, R132G); assay: RapidFire-MS/MS and NADPH Assays
# Description: as §1
# [4] = molecular target: Isocitrate dehydrogenase [NADP] cytoplasmic [R132H] (Homo sapiens, UniProt O75874, R132H); assay: RapidFire-MS/MS and NADPH Assays
# Description: as §1
smiles,measurement,setting,value
C[C@H](O)c1cccc(NC(=O)c2nn(Cc3ccc(F)cc3)c3c2CN(C(=O)c2ccc[nH]2)C[C@H]3C)c1 [GSK321],pIC50,[1],7.34
same,pIC50,[2],8.42
same,pIC50,[3],8.54
same,pIC50,[4],8.34
